Test results as given in patent US10945951B2, “Apparatus for compound dispersion” (Biogen MA Inc., priority 2014, dated 2021).
Like-named read-outs stand apart in the source and are kept apart here.

Assays:
[1] = design: species or system rodent; settings: in vivo
Description: FIGS. 12A and 13A show scans of the concentration of ^123I-Albumin after injection into the cisterna magnum and lumbar cistern into a rodent respectively. FIGS. 12B and 13B present graphs of the concentration of ^123I-Albumin from the head to the feet at different time points after cisternal injection and intrathecal injection respectively. […] Lymphoseek ([^99mTc]DTPA-mannosyl-dextran, […] Biopharmaceuticals)

[2] = design: species or system rodent; settings: in vivo; remark: listed apart in the source
Description: ^123I-Albumin was intravenously and intrathecally injected into a rodent. FIGS. 10A and 10B are scans of the concentration of ^123I-Albumin after intravenous injection. […] Consequently, the application of forces and increased bolus volumes described herein may be used for low molecular weight compounds as well as larger molecular weight compounds.

Substance: ^123I-Albumin
- distribution from the head to the feet [1]: more even distribution of albumin from the head to the feet
- distribution in the body [2]: stays relatively localized within the CSF
- distribution in the body ([2]; iv): distributed throughout the rodent's body and does not specifically target the CNS
